Source: paper PMC4546118 (SpringerPlus, 2015)

Assay: Pharmacokinetics of VCM after intravenous administration to control and PN rats
Details: PN rats (parenteral nutrition for 9 days), 5 mg/kg intravenous bolus, two-compartment model, plasma LC/MS/MS, mean of n = 4

SMILES: CN[C@H](CC(C)C)C(=O)N[C@H]1C(=O)N[C@@H](CC(N)=O)C(=O)N[C@H]2C(=O)N[C@H]3C(=O)N[C@H](C(=O)N[C@H](C(=O)O)c4cc(O)cc(O)c4-c4cc3ccc4O)[C@H](O)c3ccc(c(Cl)c3)Oc3cc2cc(c3O[C@@H]2O[C@H](CO)[C@@H](O)[C@H](O)[C@H]2O[C@H]2C[C@](C)(N)[C@H](O)[C@H](C)O2)Oc2ccc(cc2Cl)[C@H]1O [VCM, vancomycin]
- t1/2β (elimination half-life): 1.29 h
